# ClpP mod: qHTS Assay for Activators of ClpP | ATP-dependent Clp protease proteolytic subunit (Bacillus subtilis (strain 168)), P80244 | purified B. subtilis ClpP, FRET peptide cleavage, 20 min | Potency, µM (series often up to 57.5 µM) | 340,000 compounds, 1.9% hits | AID 651965, 2013; active means well fitted falling curve with a large enough effect; inconclusive means small, poorly fitted or top-dose-only effect; inactive means no such curve, though single readings can be large or run the other way; further: the source files actives as falling curves though it sought activators and does not explain the sign; nearly all actives have a fitted effect of over 65% in size
#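 FRET quenching reversal measured ClpP activation: 10 microg/mL B. subtilis ClpP at pH 8 with the FRET-FV decapeptide, read at 430 nm after 320 nm excitation. The 20-min minus 0-min signal was scaled between DMSO/no-enzyme wells and ADEP (5.8 microM final).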
# TCR activator: activators of T cell receptors. primary human leukocytes, anti-CD3, IL-2 HTRF, 48 h. Potency, µM (doses to about 9.22 µM), actives largely listed as activators. 330,000 tested, under 10 active. AID 504894
#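 1) Mix primary human leukocytes, a-CD3 beads and compound. 2) Incubate 48 hr. 3) Add HTRF IL-2 reagents (a-IL-2-K, a-IL-2-d2).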
# Nrf2 ARE act: activators of Nrf2 (ARE) signaling; Potency, µM (series often up to 46.1 µM), most hits filed as activators; AID 624171; 410,000 compounds, 0.31% hits; AREc32 ARE-luciferase reporter (MCF7-derived line), luminescence, 24 h; further: nearly all actives have a fitted effect of over 65% in size
#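 Nrf2 activation is followed as ARE-luciferase induction in the AREc32 line after one day of compound treatment; luminescence is read with Steady-Glo.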
# miR-21 FLuc: miR-21 reporter, rising signal | HeLa miR-21 FLuc reporter, luciferase, 48 h | Potency, µM (highest dose often 38.3 µM) | 340,000 tested, under 10 active | AID 2288; active = well fitted rising curve with a large enough effect; inconclusive = small, poorly fitted or top-dose-only effect; inactive = no such curve, though single readings can be large or run the other way;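 further: miR-21 action dims this reporter so a rising signal means less miR-21 action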
#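 HeLa cells stably expressing CMV-driven firefly luciferase with a downstream miR-21 binding sequence, endogenously expressing miR-21, were treated with titrations (up to about 40uM final) for 48 hours at 37 degree Celsius. Luciferase luminescence was read after lysis.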
# Nrf2 inh: Nrf2 pathway inhibition; A549 ARE-Fluc reporter, luciferase luminescence, 18-24 h; Potency, µM (titrated, usually from 46 µM), hits mostly inhibitors; 360,000 compounds, 2.1% hits; further: nearly all actives have a fitted effect of over 60% in size
#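 Two sequential reads on A549 ARE_Fluc cells exposed to compound for 18-24 h: a CellTiter-Fluor fluorescence read for viability, then a luciferase luminescence read for Nrf2/ARE activity.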
# A549 tox: counter-screen for Nrf2 inhibitors: cytotoxicity in A549 cells. 390,000 compounds, 0.16% hits. Potency, µM (series often up to 46 µM), hits mostly inhibitors. AID 504648. A549 ARE-Fluc cells, CellTiter-Fluor viability, 18-24 h
#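 A549 ARE-Fluc cells in 5% FBS OPTI-MEM, 5000 cells/well, rested 2 h then exposed to compounds in concentration-response for 18-24 h at 37 °C. Viability by CellTiter-Fluor fluorescence (Ex 405/Em 525) after 30 min; luciferase luminescence (BugLite, 15 min, RT) read afterwards.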
# A number is an active result; – = inactive; ? = inconclusive; · = not tested or not shown; [ ] = another dose, or the depositor's remark. Hits are enriched below; roughly 3.7% of the tested compounds scored in any of these assays. Unless noted, the call rests on the fitted dose curve; in most records, active means well fitted curve in the direction sought with a large enough effect; inconclusive means small, poorly fitted or top-dose-only effect, or another doubt; inactive means no such curve, though single readings can be large; an effect the other way counts as inactive or inconclusive.
SMILES,ClpP mod,TCR activator,Nrf2 ARE act,miR-21 FLuc,Nrf2 inh,A549 tox
Cc1ccc(CNC(=O)C2CCN(c3ncnc4c3nc3n4CCCCC3)CC2)cc1,–,·,–,–,?,–
O=[N+]([O-])c1cccc(NC(=S)N2CCc3ccccc32)c1,–,–,–,–,–,–
CCCS(=O)(=O)NC(=O)C1(C)CCCN(C(=O)C(C)(C)Oc2ccc(Cl)cc2)C1 (configuration not stated),–,·,–,·,·,·
COc1ccc(NC(=O)CSc2nc(-c3ccccc3)[nH]c2-c2ccccc2)cc1OC,–,·,–,–,16µM,–
COc1ccc(NC(=O)CSc2nc(-c3ccc(F)cc3)[nH]c2-c2ccc(C)cc2)cc1OC,–,·,–,?,?,?
Cc1ccc(NC(=O)CSc2nc3ccc(NC(=O)c4cccs4)cc3s2)c(C)c1,–,·,–,–,–,–
CC(C)Cc1nnc(NC(=O)CCC(=O)N2CCN(c3ccc(Cl)cc3)CC2)s1,–,–,–,–,18µM,–
Cc1ccc(OCCN2CCN(C(=O)CCC(=O)Nc3nnc(CC(C)C)s3)CC2)cc1,·,–,–,–,10µM,–
CC(C)Cc1nnc(NC(=O)CCC(=O)N2CCN(Cc3ccc(F)cc3)CC2)s1,–,–,–,–,?,–
CCCc1nnc(NC(=O)CCC(=O)N2CCN(Cc3ccc(Cl)cc3)CC2)s1,–,–,–,–,15µM,–
CCc1nnc(NC(=O)CCC(=O)N2CCN(Cc3ccccc3)CC2)s1,–,–,–,–,–,–
CCc1nnc(NC(=O)CCC(=O)N2CCN(c3ccccn3)CC2)s1,18µM,–,–,–,–,?
CC(C)(C)NC(=O)CN(Cc1ccco1)C(=O)CCC(=O)Nc1nccs1,·,–,–,–,–,–
CCc1nnc(NC(=O)Cc2ccc(S(=O)(=O)N3CCCCC3)cc2)s1,–,–,–,·,21µM,–
CCc1nnc(NC(=O)CCC(=O)N2CCN(Cc3ccc(Cl)cc3)CC2)s1,–,–,–,–,23µM,–
Cc1cc2c(s1)c1cnn(Cc3cccc([N+](=O)[O-])c3)c(=O)c1n2C,·,·,·,·,–,–
Cc1ccccc1CN1C(=O)c2ccccc2S1(=O)=O,·,–,–,–,–,–
O=C1c2ccccc2S(=O)(=O)N1Cc1nc2ccccc2s1,–,–,–,?,13µM,–
CC1=C(C(=O)N2CCOCC2)C(c2ccccc2F)C2=C(CCCC2=O)N1 (configuration not stated),25µM,–,–,–,?,–
O=S1(=O)N[C@@H](Cc2ccccc2)COc2cc(N3CCC[C@H]3CO)ccc21,–,·,–,·,·,·
COc1cc(/C=N/NC(=O)C(=O)/C=C2\NC3(CCCC3)Cc3ccccc32)ccc1O,–,–,–,–,–,–
O=C(/C=C1\NC2(CCCC2)Cc2ccccc21)C(=O)N/N=C/c1ccccc1O,–,–,–,–,15µM,?
CCCCOC(=O)c1[nH]c2c(c1C)C(=O)CC(c1cc(OC)c(OC)c(OC)c1)C2 (configuration not stated),–,–,–,–,13µM,–
C=CCOC(=O)c1[nH]c2c(c1C)C(=O)CC(c1cc(OC)c(OC)c(OC)c1)C2 (configuration not stated),–,–,–,–,10µM,–
COCCOC(=O)c1[nH]c2c(c1C)C(=O)CC(c1cc(OC)c(OC)c(OC)c1)C2 (configuration not stated),·,–,–,–,?,–
SMILES,ClpP mod,TCR activator,Nrf2 ARE act,miR-21 FLuc,Nrf2 inh,A549 tox
CC1(c2nnnn2Cc2ccccc2)CCC(=O)N1CCc1ccc(O)cc1 (configuration not stated),–,·,–,·,·,·
C=C1C(=O)O[C@@H]2[C@H]1CC[C@H](C)[C@]1(O)CCC(=O)[C@@]21C,–,–,–,–,–,–
C=C1C(=O)OC2C1CCC(C)=C1C(=O)C3OC3(C)C12 (configuration not stated),–,–,–,·,16µM,?
Cc1ccc(C2C=CC(C#N)=CN2Cc2ccccc2)cc1 (configuration not stated),–,·,–,·,·,·
O=C(O)c1nn(CC(=O)N2CCCCCC2)c(=O)c2ccccc12,28µM,–,–,–,–,–
O=C(c1nn(Cc2ccccc2)c(=O)c2ccccc12)N1CCc2ccccc2C1,–,–,–,–,23µM,?
O=c1cc(S(=O)(=O)Cc2ccccc2)[nH]c(=O)[nH]1,·,–,–,·,?,–
COc1cc(/C=C2\SC(=S)N(NC(=O)c3ccccc3O)C2=O)ccc1O,·,–,–,–,–,?
O=C(NN1C(=O)/C(=C/c2ccc(O)c([N+](=O)[O-])c2)SC1=S)c1ccccc1Cl,·,–,–,–,?,3.7µM
CCCCn1c(CCC)nc([N+](=O)[O-])c1Sc1ccc(Cl)cn1,–,–,11µM,–,?,–
CCCC[C@@H]1C=C(C(=O)O)[C@H](c2ccc(Cl)c(Cl)c2)N1S(=O)(=O)c1ccc(C)cc1,–,–,–,·,?,–
CCOC(=O)C(=Cc1ccc(Br)cc1)C(=O)OCC,·,–,?,?,18µM,?
CCc1cc2c(=O)n(Cc3ccco3)c(SCC(=O)N3CCCc4ccccc43)nc2s1,–,–,–,–,26µM,–
CCc1cc2c(=O)n(Cc3ccco3)c(SCC(=O)NCC3CCCO3)nc2s1 (configuration not stated),–,–,–,–,?,–
Cc1ccc(C)c(S(=O)(=O)NCc2ccc(C(=O)N3CCC(Cc4ccccc4)CC3)cc2)c1,–,·,–,–,16µM,–[1.84 µM]
Cc1ccc(C)c(S(=O)(=O)NCc2ccc(C(=O)N3CCN(C)CC3)cc2)c1,–,–,–,–,–,–
Cc1cccc(NC(=O)N[C@@H](C)C(=O)O)c1,16µM,–,–,–,?,–
O=C(Cn1c(=O)n(Cc2nc(-c3ccccc3)no2)c(=O)c2ccccc21)Nc1cccc(C(F)(F)F)c1,–,·,–,?,16µM,–
O=C(Cn1c(=O)n(Cc2nc(-c3ccccc3)no2)c(=O)c2ccccc21)Nc1cccc(Cl)c1,?,·,–,–,–,–
CC1CCN(S(=O)(=O)c2ccc(C(=O)Nc3nnc(-c4ccco4)o3)cc2)CC1,–,–,–,–,8.2µM,–
COc1cccc(-c2nnc(NC(=O)c3ccc(S(=O)(=O)N4CC(C)OC(C)C4)cc3)o2)c1 (configuration not stated),–,–,–,–,9.2µM,–
COc1ccccc1NC(=O)c1ccc(S(=O)(=O)N2CCC(C)CC2)cc1,·,–,–,–,8.2µM,–
O=C(Nc1nnc(-c2ccco2)o1)c1ccc([N+](=O)[O-])s1,?,–,–,–,21µM,?
COc1ccccc1NC(=O)c1ccc(S(=O)(=O)N2CCOCC2)cc1,–,–,–,–,–,–
